In patent publication US10383846B2, “Method of dosing and use of soft anticholinergic esters” (dated 2019):

Tested on: Axillary sweat production
Assay: Axillary sweat production measured by gravimetric method (filter paper) in a human subject after topical dosing
Details: for Percent Change from Baseline in sweat production: right axilla

## (2R,3′R) 3-(2-cyclopentyl-2-phenyl-2-hydroxyacetoxy)-1-(methoxycarbonylmethyl)-1-methylpyrrolidinium bromide
5% solution in 70% ethanol, treated axilla
  reduction of sweat production compared to baseline: more than 50%
5% solution topical
  duration of efficacy (sweat reduction): up to 24 hours
8 hours After 2nd Dose, 0.5 mL of 5% solution in 70% ethanol once a day
  Percent Change from Baseline in sweat production: −50%
8 hours After 3rd Dose, 0.5 mL of 5% solution in 70% ethanol once a day
  Percent Change from Baseline in sweat production: −50%
8 hours After 4th Dose, 0.5 mL of 5% solution in 70% ethanol once a day
  Percent Change from Baseline in sweat production: −56%
Average for the entire treatment period, 5% solution
  Percent Change from Baseline in sweat production: −52%
